Reference: publication PMC7723054
The list shows a part of the results.

T1: LIN28A (human?, UniProt Q9H9Z2 1-209)
T1 sequence: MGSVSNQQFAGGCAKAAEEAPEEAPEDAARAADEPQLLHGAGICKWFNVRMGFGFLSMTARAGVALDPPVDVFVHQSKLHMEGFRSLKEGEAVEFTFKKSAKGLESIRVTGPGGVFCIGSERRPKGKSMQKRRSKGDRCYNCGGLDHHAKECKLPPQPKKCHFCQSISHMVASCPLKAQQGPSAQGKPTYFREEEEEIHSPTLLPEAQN

T2: CIRBP (Homo sapiens, UniProt Q14011 1-172)
T2 sequence: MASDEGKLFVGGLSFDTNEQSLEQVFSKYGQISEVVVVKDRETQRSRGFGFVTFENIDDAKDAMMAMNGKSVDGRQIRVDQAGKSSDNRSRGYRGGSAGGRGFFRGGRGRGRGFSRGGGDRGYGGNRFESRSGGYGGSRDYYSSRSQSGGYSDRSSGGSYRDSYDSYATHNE

T3: DHX36 (Homo sapiens, UniProt Q9H2U1 1-1008)
T3 sequence: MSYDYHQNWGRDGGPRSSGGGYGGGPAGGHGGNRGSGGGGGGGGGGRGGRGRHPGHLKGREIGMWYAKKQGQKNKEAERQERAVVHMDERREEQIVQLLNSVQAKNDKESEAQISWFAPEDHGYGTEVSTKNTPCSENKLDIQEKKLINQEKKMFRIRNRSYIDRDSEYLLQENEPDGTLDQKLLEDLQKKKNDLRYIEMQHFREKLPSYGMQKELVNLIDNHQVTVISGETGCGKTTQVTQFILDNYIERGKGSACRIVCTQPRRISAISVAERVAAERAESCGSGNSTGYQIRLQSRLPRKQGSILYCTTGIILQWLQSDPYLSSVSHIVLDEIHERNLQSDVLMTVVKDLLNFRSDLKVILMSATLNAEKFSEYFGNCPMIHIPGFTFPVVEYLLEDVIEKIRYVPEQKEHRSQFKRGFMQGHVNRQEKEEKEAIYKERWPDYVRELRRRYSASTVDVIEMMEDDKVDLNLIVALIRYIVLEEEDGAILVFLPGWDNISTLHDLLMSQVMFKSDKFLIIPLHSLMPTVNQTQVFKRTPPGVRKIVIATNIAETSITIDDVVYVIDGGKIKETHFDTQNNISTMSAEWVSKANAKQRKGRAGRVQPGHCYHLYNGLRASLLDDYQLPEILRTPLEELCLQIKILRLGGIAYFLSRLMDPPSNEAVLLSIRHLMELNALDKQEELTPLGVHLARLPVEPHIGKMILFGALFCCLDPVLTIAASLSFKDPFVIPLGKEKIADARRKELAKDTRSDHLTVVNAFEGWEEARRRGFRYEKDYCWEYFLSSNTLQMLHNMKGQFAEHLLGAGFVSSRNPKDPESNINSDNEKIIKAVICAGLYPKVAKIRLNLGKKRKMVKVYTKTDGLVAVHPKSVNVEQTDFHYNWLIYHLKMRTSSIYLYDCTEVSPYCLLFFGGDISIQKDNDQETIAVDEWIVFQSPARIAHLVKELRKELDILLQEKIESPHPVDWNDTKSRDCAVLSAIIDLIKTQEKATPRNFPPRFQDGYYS

B1: hsa-mir-323b (structured_RNA)
RNA: GGGAAACACAGGACGAACGUGCUAAAUCGGUGUACGAAGUUUCAGCUUCGCAUUAUUUAAUGAUGCCCAGCUGAAGCUUCGUGCAC
B2: hsa-mir-4420 (structured_RNA)
RNA: GGGACCGGACGGUAUUUACACUGCAUCCGGUGUACGAAGUUUCAGCUGUUCAUGUCUCUCUGUGCACAGGGGACGAGAGUCAGCUGAAGCUUCGUGCAC
B3: hsa-mir-543 (structured_RNA)
RNA: GGGAACAAGUAGAGCCGGCCCUAUACGUGGUGUACGAAGUUUCAGCUUUUUUUCGCUUUAUUUGUGACGAAACGCUGAAGCUUCGUGCAC
B4: hsa-mir-4666b (structured_RNA)
RNA: GGGAGAUCGGGCCUAAUGAAGUAGUAUUGGUGUACGAAGUUUCAGCUCCCAGGCCCUUCCUCCAAUACUGGGAGCUGAAGCUUCGUGCAC
B5: hsa-mir-378b (structured_RNA)
RNA: GGGAAAUCGAUAACGUCGACCGAGCAUUGGUGUACGAAGUUUCAGCUAGUGGAAAGAGCACUGGCUGAAGCUUCGUGCAC
B6: hsa-mir-664a (structured_RNA)
RNA: GGGACAUCGAAACGCCGACACAAACACCGGUGUACGAAGUUUCAGCGGAUAGAAACUAUUAUUCUAUUCGCUGAAGCUUCGUGCAC
B7: hsa-mir-1183 (structured_RNA)
RNA: GGGAGAACACAAUGCAAUUAGGGCGCAUGGUGUACGAAGUUUCAGCAGGAGUUCACUGCUGAAGCUUCGUGCAC
B8: PARIS_ID24 (structured_RNA)
RNA: GGGCAGUUAGGAGCCAGGUGGGGAUUCCGGUGUACGAAGUUUCAGCGGGAUCUCUUUUGCAUCCCGCUGAAGCUUCGUGCAC
B9: hsa-mir-548az (structured_RNA)
RNA: GGGAGAAGACGAUGGAUGAUAUCGAUCUGGUGUACGAAGUUUCAGCUUUUGCUGUUACUUUUAAUGGCAAAAGCUGAAGCUUCGUGCAC
B10: hsa-mir-7641-2 (structured_RNA)
RNA: GGGACGAACGUGAGGACUGCCACUAACUGGUGUACGAAGUUUCAGCAAGCAGGGUCGGGCCUGGUUGCUGAAGCUUCGUGCAC
B11: hsa-mir-1913 (structured_RNA)
RNA: GGGAAUCGGCAUGUCGAGACACGUCAGUGGUGUACGAAGUUUCAGCCAGAGGCUGGCUUUCCAAAACUCUGGCUGAAGCUUCGUGCAC
B12: hsa-mir-4530 (structured_RNA)
RNA: GGGACAGAGUGCUUAUACUCUCAGGGCGGGUGUACGAAGUUUCAGCUGGGUCAAGGAGCCCAGCUGAAGCUUCGUGCAC
B13: hsa-mir-6719 (structured_RNA)
RNA: GGGAAACUAAGGCUGUCUCACUCUCAGGGGUGUACGAAGUUUCAGCCUUCAGAGCAGGGUUUGGUCUGUGCUUCUCUGGCUGAAGCUUCGUGCAC

These binders were tested against T1, LIN28A (assay: FOREST: bead pull-down of RNA structure library v1, barcode microarray; U1A/LIN28A: 20 mM HEPES pH 7.5, 80 mM KCl, 20 mM NaCl, 10% glycerol, 2 mM DTT, 0.1 ug/uL BSA, 4 C; BG4/CIRBP/DHX36: 10 mM Tris-HCl pH 7.5, 100 mM KCl (or LiCl),; high values mean tight binding).

Binder	binding signal [z-score]
B1	-2.15
B2	-2.05
B3	-2.28
B4	-2.03
B5	-2.33
B6	-2.18
B7	-2.12
B8	-2.35
B9	-2.31
B10	-2.03
B11	-2.21
B12	-2.12
B13	-2.29

What follows are binders tested against T2, CIRBP in the same assay as above.

Binder	binding signal [z-score]
B1	0.205
B2	-1.82
B3	-0.589
B4	-0.721
B5	-0.581
B6	-1.13
B7	-0.681
B8	-1.63
B9	-0.229
B10	-1.49
B11	-0.65
B12	-0.375
B13	-0.952

The binders below were run against T3, DHX36 in the same assay as above.

Binder	binding signal [z-score]
B1	-2.05
B2	-1.21
B3	-0.727
B4	-0.321
B5	-0.775
B6	-1.89
B7	-0.622
B8	-1.03
B9	-0.357
B10	-0.652
B11	-2.17
B12	-0.702
B13	-1.49
